Experimental data from patent US9346793B2, “Hydroxylated aminotriazole derivatives as ALX receptor agonists” (Actelion Pharmaceuticals, LTD., priority 2010, dated 2016).

The chains behind the UniProt entries cited, without tags or fusion partners.
UniProt P25090, whole entry: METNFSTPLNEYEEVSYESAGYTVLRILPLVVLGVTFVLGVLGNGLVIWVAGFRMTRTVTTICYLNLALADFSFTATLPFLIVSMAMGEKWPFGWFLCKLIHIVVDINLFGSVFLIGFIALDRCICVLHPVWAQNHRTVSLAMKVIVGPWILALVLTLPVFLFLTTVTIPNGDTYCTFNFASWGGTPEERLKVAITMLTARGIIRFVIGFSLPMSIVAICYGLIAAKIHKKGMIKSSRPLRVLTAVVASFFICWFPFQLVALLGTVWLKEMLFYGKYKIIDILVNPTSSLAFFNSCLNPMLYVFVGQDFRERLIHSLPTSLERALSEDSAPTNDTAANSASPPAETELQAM

Molecular target: recombinant human ALX receptor (HEK293-hALXR-Gα16 cells) (Homo sapiens (Human), UniProt P25090)
Assay: Intracellular calcium measurements (FLIPR), ALX receptor agonistic activity
Conditions: read-out: EC50 (agonistic activity with respect to the ALX receptor), normalized to 10 nM WKYMVm
Description: The ALX receptor agonistic activity of the compounds of formula (I) is determined in accordance with the following experimental method.
Intracellular Calcium Measurements:
Cells expressing recombinant human ALX receptor and the G-protein Gα16 (HEK293-hALXR-Gα16) were grown to 80% confluency in Growing Medium (GM). Cells were detached from culture dishes with a cell dissociation buffer (Invitrogen, 13151-014), and collected by centrifugation at 1,000 rpm at rt for 5 min in Assay Buffer (AB) (equal parts of Hank's BSS (Gibco, 14065-049) and DMEM without Phenol Red (Gibco, 11880-028)). After 60 min incubation at 37° C. under 5% CO2 in AB supplemented with 1 μM Fluo-4 (AM) (Invitrogen, F14202) and 20 mM HEPES (Gibco, 15630-056), the cells were washed and resuspended in AB. They were then seeded onto 384-well FLIPR assay plates (Greiner, 781091) at 50,000 cells in 70 μl per well and sedimented by centrifugation at 1,000 rpm for 1 min. Stock solutions of test compounds were made up at a concentration of 10 mM in DMSO, and serially diluted in AB to concentrations required for activation dose response curves. WKYMVm (Phoenix Peptides) was used as a reference agonist. […] Changes in fluorescence were monitored before and after the addition of test compounds at lex=488 nm and lem=540 nm. […]

| EC50 | SMILES |
| --- | --- |
| 2.2 nM | CC(=O)c1csc(Cn2ncc(NC(=O)c3nc(C)oc3-c3cccc(C)c3)n2)n1 |
| 0.7 nM | CC(=O)c1coc(Cn2ncc(NC(=O)c3ncoc3-c3ccccc3)n2)n1 |
